Results taken from patent publication US20260274986A1, “USE OF CHIMERA IN TARGETED PROTEIN DEGRADATION TECHNOLOGY” (SUN YAT-SEN UNIVERSITY, priority 2023, published 2026).

Assays:
[1] = tested on: lysosomes and lysosome-related organelles; experiment: Electron microscopy of lysosomes and lysosome-related organelles; format: cell-based; details: Tz versus untreated normal cells; Ab6 versus Tz group
Text: In this Example, an electron microscope was further used to observe the changes in intracellular lysosomes and lysosome-related organelles including early endosomes, late endosomes, and endolysosomes.

SKOV3 cells = experiment: In vivo anti-tumor activity, SKOV3 subcutaneous tumor in nude mice; details: 15 mg/kg intraperitoneal every 4 days, versus model group (PBS)
Text: In this Example 50 SPF-grade nude/nude female mice were used as the experimental animals. The mice were purchased from Beijing Vital River Laboratory Animal Technology Co., Ltd. (Animal Use License No.: SCXK (Jing) 2021-0006), were 6-8 weeks old and weighed 20-25 g. All the mice were housed under a 12-hour light/dark cycle with unrestricted access to food and water, at room temperature and 55% humidity.
A suspension of SKOV3 cells (1×10^7 cells) were subcutaneously inoculated into the right hind limb of each nude mouse with an inoculation volume of 0.2 mL. The model was considered successfully established when the tumor volume reached 100-150 mm^3.
Administration Method: According to the grouping, each mouse was administered 15 mg/kg via intraperitoneal injection every 4 days. The model group received PBS injections.
Sample Collection and Detection: 24 hours after the last administration, the mice were euthanized by cervical dislocation. Subcutaneous tumor tissues were collected. The long and short diameters of the tumor tissues from the mice were measured and the tumor mass was weighed. Tumor volume was calculated using the formula: Tumor Volume=(Length×Width^2)/2.

Trastuzumab [Tz, reference compound] was tested, and the “number of early endosomes, late endosomes, endolysosomes and lysosomes (electron microscopy, FIG. 17)” value [1] was “obvious increased number” and the “tumor growth, tumor volume (FIG. 21A)” value (SKOV3 cells) was “a certain inhibitory effect on tumor growth”.
